## Apparent affinities of Ab-91 variants for a coronavirus HR2 peptide

Data: MIT Lincoln Laboratory AlphaSeq set, Engelhart et al. 2022, doi:10.1038/s41597-022-01779-4, as distributed in FLAb.

All variants were tested on one target, the spike HR2 peptide PDVDLGDISGINAS (SARS-CoV-2).

The variants keep the light chain, the linker and the frameworks of Ab-91 (scFv order VL, a 15-residue (Gly4Ser)3 linker, VH).
VL: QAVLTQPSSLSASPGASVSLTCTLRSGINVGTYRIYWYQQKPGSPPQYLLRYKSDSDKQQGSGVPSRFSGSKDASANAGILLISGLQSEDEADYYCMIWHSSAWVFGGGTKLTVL
VH: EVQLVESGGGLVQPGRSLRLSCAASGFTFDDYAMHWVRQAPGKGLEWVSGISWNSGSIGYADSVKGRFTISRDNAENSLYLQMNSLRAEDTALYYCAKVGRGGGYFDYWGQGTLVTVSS

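The parent was found by panning a naive human phage display library on the peptide. The library (AAYL51) carries one to three amino acid substitutions per variant, with no insertions or deletions. The assay is AlphaSeq: two haploid yeast populations carry antibody and antigen on their surface. Pairs that bind mate more often; barcode pairs of the diploids are counted by sequencing. Scores were corrected for input abundance and mapped to Kd with protein pairs of known affinity run in the same pool. There are three technical replicates.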

Changes read parent residue, position, new residue, counted from the first residue of the VH shown. Affinities are written as log10 Kd with Kd in nM; a lower number is a better binder. A mean of the replicates is given; it leaves out those without a signal. Where no diploid with the target was found in any replicate, the entry reads "nd": below detection, most likely a poor binder, though not proof of it. Three control strains display no target. For library AAYL51, 21% of the pairings with them gave a signal, with a median of 4.54 and one signal in twenty below 3.26, so weak values seen in few replicates may be background.

changes	log10 Kd (nM), mean	replicates with signal
I58L/A61C/Y105E	nd	0/3
G26L/Y60A/Y108L	nd	0/3
S57K/D62W/Y108C	4.15	2/3
T28H/S52C/Y60M	nd	0/3
T28E/F29G/I58Y	1.80	3/3
I51T/I58E/D107W	nd	0/3
D30W/H35C/G102S	4.08	1/3
I51N/N54S	2.89	1/3
S52P/Y105Q/F106M	4.08	2/3
D31I/K65C	nd	0/3
F29C/G50M/D107I	nd	0/3
W53E/Y60W/G104D	4.39	1/3
A33I/A61E/D107H	4.96	1/3
Y32G/S57C/I58S	4.25	1/3
G26F/T28E/G104D	nd	0/3
V64F/V99M/G103Q	3.12	1/3
M34T/I51F/Y108K	5.08	2/3
Y32M/I51D/A61M	4.59	2/3
N54G/V64T/G100Y	4.80	2/3
F29C/D62R/G104Y	nd	0/3
T28E/S55R/G59L	3.64	1/3
M34T/G100P	4.05	3/3
F27L/Y60G/F106I	nd	0/3
D31Y/S52Q/G56R	2.32	1/3
M34P/G100M/G104D	5.25	1/3
S55W/G56M/G102V	nd	0/3
G56H/D62K/G102R	nd	0/3
I58F/V64R/V99K	5.41	2/3
H35K/S63P/G103N	5.09	2/3
Y32T/H35Q/S52K	nd	0/3
G59F/G103Q	5.09	1/3

Second part, the sequence after the result:

log10 Kd (nM), mean	replicates with signal	changes
5.19	3/3	G50L/S63P/K65I
nd	0/3	A33Y/I58E/D107M
5.79	2/3	A33V/G50W/S55A
3.98	3/3	A33Q/G104M
3.32	2/3	G26Y/F29N/S55H
4.52	3/3	G100R/D107H/Y108K
nd	0/3	G50E/S63N/G102L
nd	0/3	D31G/G56R
nd	0/3	G102Q/G103E/Y108P
6.27	1/3	G50Q/V64F/Y105H
5.12	2/3	G59L/G104K
nd	0/3	F27C/I58Y/G103I
nd	0/3	T28N/I51D/Y108G
nd	0/3	M34D/S63E/Y105S
3.62	1/3	I51L/S55W/Y108S
5.15	2/3	T28G/M34D/D62P
3.93	1/3	F29M/G59A/V99C
nd	0/3	H35A/S52K/V64Q
nd	0/3	G59Q/S63W/G103C
3.51	2/3	D30M/K65N/R101D
4.04	2/3	F29G/W53R/S63C
2.42	3/3	G56N/D62L/G103S
nd	0/3	M34C/N54S/G56H
nd	0/3	K65G/V99C/Y105S
4.26	2/3	G50W/I51A/D107E
nd	0/3	G26F/F27K/D62Q
4.95	2/3	S52I/G104W
nd	0/3	A33R/Y60E
nd	0/3	S55F/R101K/F106T
3.41	1/3	F27H/S52D/V64T
5.81	1/3	W53S/V99K/G103K
nd	0/3	H35Y/S52D/W53S

For reference, the parent read 1.86 as the reference entry and 0.88 as a member of this library.